Assay results as given in patent publication US7928140B2, “Benzothiazole PI3 kinase modulators for cancer treatment” (Amgen Inc., priority 2007, dated 2011).

Protein sequences, listed by entry. Tags and fused reporters are not part of them.
UniProt P42336, whole entry, species assumed: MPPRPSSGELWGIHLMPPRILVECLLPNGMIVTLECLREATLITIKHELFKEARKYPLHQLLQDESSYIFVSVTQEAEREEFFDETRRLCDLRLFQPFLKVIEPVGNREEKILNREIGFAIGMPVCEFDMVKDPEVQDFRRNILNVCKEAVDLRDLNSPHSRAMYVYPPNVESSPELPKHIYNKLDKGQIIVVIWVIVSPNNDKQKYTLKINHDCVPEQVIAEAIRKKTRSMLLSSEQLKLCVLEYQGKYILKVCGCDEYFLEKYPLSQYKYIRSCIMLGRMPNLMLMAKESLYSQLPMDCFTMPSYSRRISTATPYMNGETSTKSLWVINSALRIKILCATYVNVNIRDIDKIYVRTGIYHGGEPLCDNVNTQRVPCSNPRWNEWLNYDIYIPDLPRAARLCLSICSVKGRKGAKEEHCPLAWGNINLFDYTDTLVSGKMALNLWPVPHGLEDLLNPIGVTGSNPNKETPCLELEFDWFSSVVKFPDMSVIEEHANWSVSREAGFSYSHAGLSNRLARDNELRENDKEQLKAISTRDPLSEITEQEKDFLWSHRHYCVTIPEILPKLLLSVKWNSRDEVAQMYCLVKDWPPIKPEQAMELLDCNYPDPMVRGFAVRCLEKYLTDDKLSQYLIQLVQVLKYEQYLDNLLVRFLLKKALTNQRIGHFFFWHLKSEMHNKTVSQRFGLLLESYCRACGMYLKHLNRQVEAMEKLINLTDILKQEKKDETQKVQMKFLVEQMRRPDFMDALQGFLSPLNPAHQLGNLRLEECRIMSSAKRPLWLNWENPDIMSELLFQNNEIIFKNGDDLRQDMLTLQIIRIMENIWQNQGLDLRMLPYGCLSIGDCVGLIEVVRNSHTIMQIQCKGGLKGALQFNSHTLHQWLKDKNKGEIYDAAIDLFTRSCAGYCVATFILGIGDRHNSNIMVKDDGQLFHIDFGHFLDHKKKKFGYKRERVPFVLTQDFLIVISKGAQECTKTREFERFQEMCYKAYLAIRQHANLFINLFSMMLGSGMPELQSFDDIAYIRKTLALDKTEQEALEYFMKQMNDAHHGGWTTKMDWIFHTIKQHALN

The compounds below were run against T1, PI3K α (Homo sapiens, UniProt P42336) (assay: In vitro PI3 kinase enzyme assay (alpha), ATP loss, bioluminescence). Details: read-out: PI3Kα ATP loss IC50.
T1 construct: Full length p110 subunits of PI3K α, β and δ, N-terminally labeled with polyHis tag; polyHis (N); made in house; host or cells: Sf9 insect cells (baculovirus)
Format: biochemical
Method: The compound in DMSO (1 μL) was added per test well, and the inhibition relative to reactions containing no compound, with and without enzyme was determined.
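Note: purified p110α/p85 heterodimer acting on PtdIns(4,5)P2 at room temperature, remaining ATP read by luminescence, inhibition scaled between compound-free wells with and without enzyme.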

IC50 | SMILES
7.5 nM | COc1ccc(S(=O)(=O)Nc2cc(-c3ccc4nc(NC(C)=O)sc4c3)cnc2C)cc1 [Example 116, N-(6-(5-(((4-methoxyphenyl)sulfonyl)amino)-6-methyl-3-pyridinyl)-1,3-benzothiazol-2-yl)acetamide]
6.3 nM | CC(=O)Nc1nc2ccc(-c3cnc(Cl)c(NS(=O)(=O)c4cccc(C(F)(F)F)c4)c3)cc2s1 [Example 172, N-(6-(6-chloro-5-(3-(trifluoromethyl)phenylsulfonamido)pyridin-3-yl)benzo[d]thiazol-2-yl)acetamide]
6.1 nM | CC(=O)Nc1nc2ccc(-c3cnc(Cl)c(NS(=O)(=O)c4cccc(C(C)(C)C)c4)c3)cc2s1 [Example 173, N-(6-(5-(3-tert-butylphenylsulfonamido)-6-chloropyridin-3-yl)benzo[d]thiazol-2-yl)acetamide]
4.9 nM | CC(=O)Nc1nc2ccc(-c3cnc(Cl)c(NS(=O)(=O)c4ccc(Cl)cc4)c3)cc2s1 [Example 180, N-(6-(6-chloro-5-(4-chlorophenylsulfonamido)pyridin-3-yl)benzo[d]thiazol-2-yl)acetamide]
6.6 nM | CC(=O)Nc1nc2ccc(-c3cnc(Cl)c(NS(=O)(=O)c4cccc(F)c4)c3)cc2s1 [Example 183, N-(6-(6-chloro-5-(3-fluorophenylsulfonamido)pyridin-3-yl)benzo[d]thiazol-2-yl)acetamide]
6 nM | CC(=O)Nc1nc2ccc(-c3cnc(Cl)c(NS(=O)(=O)c4cccc(Cl)c4)c3)cc2s1 [Example 185, N-(6-(6-chloro-5-(3-chlorophenylsulfonamido)pyridin-3-yl)benzo[d]thiazol-2-yl)acetamide]
4.9 nM | CC(=O)Nc1nc2ccc(-c3cnc(Cl)c(NS(=O)(=O)c4ccc(C(F)(F)F)cc4)c3)cc2s1 [Example 190, N-(6-(6-chloro-5-(4-(trifluoromethyl)phenylsulfonamido)pyridin-3-yl)benzo[d]thiazol-2-yl)acetamide]
3.6 nM | CC(=O)Nc1nc2ccc(-c3cnc(Cl)c(NS(=O)(=O)c4ccc(C(C)(C)C)cc4)c3)cc2s1 [Example 191, N-(6-(5-(4-tert-butylphenylsulfonamido)-6-chloropyridin-3-yl)benzo[d]thiazol-2-yl)acetamide]

Further lines, the compound ahead of its results:

SMILES | IC50
CC(=O)Nc1nc2ccc(-c3cccc(N(C)S(=O)(=O)c4ccc(C)cc4)n3)cc2s1 [Example 74, N-(6-(6-(N,4-Dimethylphenylsulfonamido)pyridin-2-yl)benzo[d]thiazol-2-yl)acetamide] | 32.9 nM
CC(=O)Nc1nc2ccc(-c3ccnc(NS(=O)(=O)c4ccc(F)cc4)n3)cc2s1 [Example 80, N-(6-(2-(((4-fluorophenyl)sulfonyl)amino)-4-pyrimidinyl)-1,3-benzothiazol-2-yl)acetamide] | 41.6 nM
CC(=O)Nc1nc2ccc(-c3ccnc(NS(=O)(=O)c4ccccc4F)n3)cc2s1 [Example 81, N-(6-(2-(((2-fluorophenyl)sulfonyl)amino)-4-pyrimidinyl)-1,3-benzothiazol-2-yl)acetamide] | 36.5 nM
CC(=O)Nc1nc2ccc(-c3ccnc(NS(=O)(=O)c4cccc(F)c4)n3)cc2s1 [Example 82, N-(6-(2-(((3-fluorophenyl)sulfonyl)amino)-4-pyrimidinyl)-1,3-benzothiazol-2-yl)acetamide] | 77.3 nM
CCN(c1nccc(-c2ccc3nc(NC(C)=O)sc3c2)n1)S(=O)(=O)c1ccc(OC)cc1 [Example 89, N-(6-(2-(N-Ethyl-4-methoxyphenylsulfonamido)pyrimidin-4-yl)benzo[d]thiazol-2-yl)acetamide] | 283 nM
CC(=O)Nc1nc2ccc(-c3ccnc(Cl)n3)cc2s1 [Example 105, N-(6-(2-chloro-4-pyrimidinyl)-1,3-benzothiazol-2-yl)acetamide] | 1700 nM
COc1ccc(S(=O)(=O)Nc2cncc(-c3ccc4nc(NC(C)=O)sc4c3)n2)cc1 [Example 118, N-(6-(6-(((4-methoxyphenyl)sulfonyl)amino)-2-pyrazinyl)-1,3-benzothiazol-2-yl)acetamide] | 8.4 nM
COc1ccc(S(=O)(=O)Nc2cncc(-c3ccc4nc(NC(C)=O)sc4c3)c2)cc1 [Example 195, N-(6-(5-(4-methoxyphenylsulfonamido)pyridin-3-yl)benzo[d]thiazol-2-yl)acetamide] | 7.8 nM
COc1ccc(S(=O)(=O)Nc2cc(-c3ccc4nc(NC(C)=O)sc4c3)ccn2)cc1 [Example 217, N-(6-(2-(4-methoxyphenylsulfonamido)pyridin-4-yl)benzo[d]thiazol-2-yl)acetamide] | 67.1 nM
COc1ccc(S(=O)(=O)Nc2cccc(-c3ccc4nc(NC(C)=O)sc4c3)c2)cc1 [Example 260, N-(6-(3-(4-methoxyphenylsulfonamido)phenyl)benzo[d]thiazol-2-yl)acetamide] | 94.8 nM
